SMILES strings stand for the structures.

Sequences of proteins named here, by UniProt entry; tags and fusion partners are left off.
UniProt Q93009, whole entry: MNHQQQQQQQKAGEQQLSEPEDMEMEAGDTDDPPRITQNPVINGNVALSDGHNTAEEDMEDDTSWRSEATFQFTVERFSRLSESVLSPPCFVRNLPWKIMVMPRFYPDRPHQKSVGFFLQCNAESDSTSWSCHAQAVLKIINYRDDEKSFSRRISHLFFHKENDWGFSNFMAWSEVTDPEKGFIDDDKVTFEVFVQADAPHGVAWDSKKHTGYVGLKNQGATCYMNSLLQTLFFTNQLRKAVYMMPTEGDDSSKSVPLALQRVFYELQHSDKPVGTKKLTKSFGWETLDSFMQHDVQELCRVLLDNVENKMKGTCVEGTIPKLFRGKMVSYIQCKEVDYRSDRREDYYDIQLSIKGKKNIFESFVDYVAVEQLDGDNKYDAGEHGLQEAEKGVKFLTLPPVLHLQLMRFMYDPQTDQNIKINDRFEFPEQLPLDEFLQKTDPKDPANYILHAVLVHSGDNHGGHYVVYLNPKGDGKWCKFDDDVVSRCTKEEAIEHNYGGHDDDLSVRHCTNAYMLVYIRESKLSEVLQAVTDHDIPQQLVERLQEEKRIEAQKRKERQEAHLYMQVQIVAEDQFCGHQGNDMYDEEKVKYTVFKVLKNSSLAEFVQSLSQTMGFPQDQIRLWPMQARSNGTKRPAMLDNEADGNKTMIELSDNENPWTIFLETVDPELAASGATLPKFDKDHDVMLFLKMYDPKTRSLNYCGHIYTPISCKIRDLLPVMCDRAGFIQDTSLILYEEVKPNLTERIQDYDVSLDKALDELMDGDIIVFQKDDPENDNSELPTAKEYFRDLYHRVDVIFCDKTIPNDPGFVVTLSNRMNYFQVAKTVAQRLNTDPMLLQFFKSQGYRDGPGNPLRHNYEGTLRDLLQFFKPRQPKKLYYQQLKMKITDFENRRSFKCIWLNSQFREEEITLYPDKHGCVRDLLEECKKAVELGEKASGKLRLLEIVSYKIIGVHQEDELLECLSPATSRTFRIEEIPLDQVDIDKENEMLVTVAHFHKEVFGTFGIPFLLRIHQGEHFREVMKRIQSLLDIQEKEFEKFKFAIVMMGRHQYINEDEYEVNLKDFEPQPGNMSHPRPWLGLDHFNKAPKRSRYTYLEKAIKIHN

What is called IC50 is the midpoint of a concentration-inhibition curve. The term EC50 denotes the midpoint of the concentration-response curve.

One test has as its target USP7 (Homo sapiens (Human), UniProt Q93009). The experiment in a line: USP7 fluorescence polarisation (FP) biochemical assay, ubiquitin-Lys-TAMRA substrate. The settings on record: read-out: USP7 IC50; Table 1, R9a = H versus R9a = Cl.
For the next test, the system named is LNCaP cells. As to the kind of experiment: LNCaP proliferation assay (CellTiter-Glo). The settings on record: read-out: LNCaP EC50; Table 1, cell viability after 168 h. For orientation: Cellular ATP, detected with luciferase, serves as a proxy for viable cell number.

Regarding `CC1(C(=O)N2CCC(O)(Cn3cnc4c(ccn4-c4ccc(Cl)cc4)c3=O)CC2)CC1`, the IC50 on USP7 was 390 nM. The EC50 in the test with LNCaP cells amounted to 49 nM.
With `CC1(C(=O)N2CCC(O)(Cn3cnc4c(ccn4-c4ccc5c(c4)OCO5)c3=O)CC2)CC1`, the IC50 at USP7 was determined as 420 nM. The EC50 in the test with LNCaP cells is 140 nM.
For `Cn1cc(-c2cccc(-n3ccc4c(=O)n(CC5(O)CCN(C(=O)C6(C)CC6)CC5)cnc43)c2)cn1`, on USP7, the IC50 turned out to be 330 nM. In addition, the EC50 with LNCaP cells was 130 nM.

Values taken from patent US10766903B2 (ALMAC DISCOVERY LIMITED, priority 2016, dated 2020).
